What was measured:
[1] = Drug exposure in mouse brain at 10 mg/kg, ip measured after 30 mins by LC-MS/MS analysis; settings: read-out: Drug uptake, in vivo, 0.5 h
HFL1 = experiment: Cytotoxicity against human HFL1 cells assessed as reduction in cell viability incubated for 24 hrs by MTT assay; settings: hfl1, 24 h
[2] = Drug exposure in mouse plasma at 10 mg/kg, ip measured after 30 mins by LC-MS/MS analysis; settings: read-out: Cp, in vivo, 0.5 h
Vero = experiment: Cytotoxicity against African green monkey Vero cells assessed as reduction in cell viability incubated for 24 hrs by MTT assay; settings: chlorocebus sabaeus
CHO-K1 = experiment: Cytotoxicity against CHO-K1 cells assessed as reduction in cell viability incubated for 24 hrs by MTT assay; settings: chinese hamster, cho-k1, 24 h
NIH3T3 = experiment: Cytotoxicity against mouse NIH3T3 cells assessed as reduction in cell viability incubated for 24 hrs by MTT assay; settings: nih3t3, 24 h
L929 = experiment: Cytotoxicity against mouse L929 cells assessed as reduction in cell viability incubated for 24 hrs by MTT assay; settings: l929, 24 h
[3] = Ratio of drug exposure in mouse brain to plasma at 10 mg/kg, ip measured after 30 mins by LC-MS/MS analysis; settings: 0.5 h

SMILES | concentration [1] [nM] | CC50 (HFL1) [µM] | concentration [2] [nM] | CC50 (Vero) [µM] | CC50 (CHO-K1) [µM] | CC50 (NIH3T3) [µM] | CC50 (L929) [µM] | BPR [3] [%]
CC(C)CCCNCCNC(=O)/C=N/O | 445 | > 100 | 444 | > 100 | > 100 | > 100 | > 100 | 100
NC(=O)c1cc[n+](COC[n+]2ccccc2/C=N/O)cc1 | 185 | – | 4220 | – | – | – | – | –
